We go through 55 compounds from published antibiotic growth screens (doi:10.1038/s41589-023-01349-8).

SMILES strings stand for the structures. Some of the results follow.

The subject of the assay is A. baumannii ATCC 17978. Description: relative growth (fraction of control); higher = less inhibition. To be noted: 50 µM.
As to `Cn1cnc(S(=O)(=O)N2C[C@H](O)COC[C@H]3O[C@@H](CC(=O)NC4CCCC4)CC[C@@H]32)c1`, the relative growth was 1.
The value for `Nc1ccn(C2O[C@H](CO)[C@@H](O)[C@@H]2O)c(=O)n1` (stereo not given in full) was 1.09; that for `C[C@@H]1[C@H]2[C@H](O[C@@H]3O[C@H](CO)[C@@H](O)[C@H](O)[C@H]3O)OC=C(C(=O)O)[C@H]2C[C@@H]1OC(=O)/C=C/c1ccc(O)cc1` was 0.979.
The value for `NC(=O)CSc1ncn(-c2ccccc2)n1` was 0.977.
The value for `CCO[C@H]1OC(C(N)=O)=C[C@@H](C)[C@@H]1CCCO` was 1.14; that for `COC(=O)c1c(C)c2c(c(C)c1OC)OC(=O)c1c(C)c(Cl)c(OC)c(Cl)c1O2` was 1.09; that for `CN1CC2(COC2)OCCS1(=O)=O` was 0.944.
In the case of `CN1CCN2c3ncccc3Cc3ccccc3C2C1` (stereo not given), the relative growth is 0.894.
The value for `NCCC(=O)N[C@@H](Cc1c[nH]cn1)C(=O)O` was 1.05; that for `Cc1cc(C)nc(NS(=O)(=O)c2ccc(N)cc2)n1` was 1.3; that for `Cc1ccc(S(=O)(=O)N(C)C[C@H]2Oc3ncc(Br)cc3C(=O)N([C@H](C)CO)C[C@@H]2C)cc1` was 0.832.
`Nc1nnc(CNC(=O)c2ccccc2)[nH]1` came in with a relative growth of 0.968.
The value for `c1coc(CNc2nc[n+]3c4c2ncn4CC3)c1` was 1.02; that for `CC(C)=CCc1c2c(c3occ(-c4ccc(O)c(O)c4)c(=O)c3c1O)C=CC(C)(C)O2` was 1.03.
The value for `COc1cc(NS(=O)(=O)c2ccc(N)cc2)ncn1` was 1.08.
The value for `C=CCC[C@@H](Cc1ccc(F)cc1)C(=O)O[C@H](CNC(=O)[C@H](CC=C)CC(=O)N(CCO)Cc1ccccc1)c1ccccc1` was 1.05.
`COC(=O)N/N=C/c1c[n+]([O-])c2ccccc2[n+]1[O-]` had a relative growth of 0.128.
The value for `O=C(C[C@@H]1CC[C@H]2[C@@H](COC[C@H](O)CN2C(=O)c2ccncc2)O1)NCc1ccc(-c2ccccc2)cc1` was 1.08; that for `CC(C)(C)C(=O)Nc1c[nH]c(=O)[nH]c1=O` was 0.977; that for `Cn1cnc(S(=O)(=O)N[C@@H]2CC[C@@H](CC(=O)N3CCN(c4ccccc4)CC3)O[C@@H]2CO)c1` was 1.05.
The value for `Cc1ncc([N+](=O)[O-])cc1C(=O)O` was 0.813.
The value for `O=S1(=O)C[C@H](NCc2cccnc2)[C@@H](O)C1` was 1.08; that for `CN(C(=O)CN(CCO)CC(=O)N(C)C(C)(C)Cc1ccccc1)C(C)(C)Cc1ccccc1` was 0.434; that for `O=C(C[C@@H]1CC=CCC[C@H](Cc2ccc(F)cc2)C(=O)OC[C@H](Cc2c[nH]c3ccccc23)NC1=O)N[C@@H](CO)Cc1ccccc1` was 1.24.
With `CCOC(=O)Nc1nc2ccccc2[nH]1`, the relative growth came to 0.806.
The value for `Cc1ccccc1S(=O)(=O)N1C[C@H](O)COC[C@H]2O[C@@H](CC(=O)NCCc3ccccc3)CC[C@@H]21` was 0.984.
The value for `C=CCC[C@@H](Cc1ccc(F)cc1)C(=O)OC[C@H]1CCCN1C(=O)[C@H](CC=C)CC(=O)N(CCO)Cc1ccccc1` was 0.903; that for `COC1=CC(C)[C@@H]2C[C@H]3OC(=O)C[C@H]4C(C)=C(OC)C(=O)C([C@@]34C)[C@@]2(C)C1=O` (stereo not given in full) was 0.994; that for `O=C(C[C@@H]1CC[C@H](NC(=O)C2CC2)[C@H](CO)O1)NCCCN1CCOCC1` was 1.04.
The value for `C=CCC[C@H](Cc1ccc(F)cc1)C(=O)OC[C@@H](NC(=O)[C@H](CC=C)CC(=O)N(CCO)Cc1ccccc1)c1ccccc1` was 1.3; that for `COC(=O)[C@@H](Cc1ccccc1)N[C@H](/C=C/C1CC1)[C@@H](O)CCn1cc(-c2ccc(C(=O)NO)cc2)nn1` was 1.01; that for `C=CC[C@H](CC(=O)N(CCO)Cc1ccccc1)C(=O)N[C@@H](COC(=O)[C@H](CC=C)CC(=O)OC(C)(C)C)Cc1c[nH]c2ccccc12` was 1.22.
As for `COCCOC(=O)N1C(=O)[C@@]2(c3cc(C#CCCO)ccc31)[C@H](c1ccccc1OCCO)N1[C@H](c3ccccc3)[C@H](c3ccccc3)OC(=O)[C@H]1[C@@H]2C(=O)NC[C@H](O)c1ccccc1`, the relative growth amounted to 1.24.
The value for `COc1ccc(-c2oc3cc(OC)c(OC)c(OC)c3c(=O)c2OC)cc1OC` was 1.1.
In turn, `NC(=O)C[C@H](N)C(=O)O.O` showed a relative growth of 0.894.
The value for `CC(=O)OCC1=C(C(=O)[O-])N2C(=O)[C@@H](NC(=O)CSc3ccncc3)[C@H]2SC1.[Na+]` was 0.895; that for `C[C@H]1CN([C@@H](C)CO)S(=O)(=O)c2ccc(C#Cc3cccc(F)c3)cc2O[C@H]1CN(C)C(=O)CN1CCOCC1` was 0.883; that for `C[C@@H](O)C#Cc1ccc2c(c1)O[C@@H](CN(C)C(=O)c1ccncc1)[C@@H](C)CN([C@@H](C)CO)S2(=O)=O` was 1.
The value for `O=C(O)c1ccc[n+]([O-])c1` was 1.04; that for `CC(C)(CO)C(O)C(=O)NCCC(=O)NCCSSCCNC(=O)CCNC(=O)C(O)C(C)(C)CO` (stereo not given) was 0.986; that for `O=C(C[C@@H]1CC[C@@H]2[C@H](COC[C@@H](O)CN2S(=O)(=O)c2ccc(F)cc2)O1)NCCN1CCCCC1` was 0.988.
Regarding `Cc1cccc(C)c1OCC(C)N.Cl` (stereo not given), the relative growth is 1.1.
The value for `O=C(NCC(F)(F)F)[C@@H]1c2ccccc2C(=O)N(Cc2cc(C(F)(F)F)cc(C(F)(F)F)c2)[C@H]1c1ccc(CO)cc1` was 0.985; that for `O=C(CCCCCNC(=O)OCc1ccc(CN(C(=O)Nc2ccccc2)[C@@H](Cc2ccccc2)Cn2cc(-c3ccccn3)nn2)cc1)NO` was 0.94.
The value for `Nc1nonc1/C(=N/O)N1CCCCC1` was 0.99; that for `CC(C)NC(=O)N(C)C[C@H]1Oc2cc(C#Cc3ccc(F)cc3)ccc2S(=O)(=O)N([C@@H](C)CO)C[C@@H]1C` was 1.06.
The value for `O=C(CN1CCOCC1)NCC[C@H]1CC[C@@H](NS(=O)(=O)c2ccc(F)cc2)[C@@H](CO)O1` was 1.11.
For the compound `C[C@H](NC(=O)C[C@H]1C=C[C@@H](NC(=O)CN2CCOCC2)[C@@H](CO)O1)c1ccccc1`, the relative growth is 0.989.
The value for `O=C(NCCCN1CCOCC1)C(=O)NC1CC1` was 1; that for `O=C(C[C@H]1CC[C@@H](NC(=O)Nc2ccc3c(c2)OCO3)[C@H](CO)O1)NCCCN1CCOCC1` was 0.928; that for `O=P(O)(O)C(O)(Cn1ccnc1)P(=O)(O)O` was 0.927.
On to `C[n+]1cc2c3c(ccc2c2ccc4cc5c(cc4c21)OCO5)OCO3.[Cl-]`, for which the relative growth amounted to 0.828.
Consider `Cc1ccc(C)c(Cc2cc(Cl)ccc2Cl)c1`, for which the relative growth is 1.1.
The value for `CC(C)(CO)[C@@H](O)C(=O)NCCC(=O)O` was 0.93; that for `O=C(C[C@@H]1CC[C@@H](NC(=O)Cc2ccccn2)[C@@H](CO)O1)NCCCN1CCOCC1` was 1.02.
